Data reported in US20070196865A1 (priority 2003, published 2007).

Molecular target: β2AR, AT1AR, and DOR (Homo sapiens)
Settings: pool of three U2OS cell lines expressing β2AR, 37° C. for 45 minutes
Method: The assays were carried out using various “double stable” human osteosarcoma cell (U2OS) lines. Each cell line stably expressed an arrestin-GFP conjugate of the Renilla reniformis green fluorescent protein fused in frame to the carboxyl terminus of rat β-arrestin2 as well as one of the following GPCRs: α1b adrenergic receptor (α1bAR), beta2-AR […], delta opioid (DOR) receptor, angiotensin1A receptor (AT1AR), or V2 vasopressin receptor (V2R).
Cells were plated 16-24 hours prior to the experiment at approximately 6,000 cells per well. Cells were removed from the flasks with trypsin and suspended in growth media for plating at a density of 100,000 cells per ml.
One of two methods were used to multiplex the cell lines. In one method, each cell line was dispensed independently such that the final cell number was approximately 6,000 cells per well. The dispense volume was adjusted depending on the number of cell lines used. […]
Plates were imaged for response determination on an In Cell Analyzer 3000, Gen. […] Pit or vesicle responses were quantitated using the Granularity Module of the Raven Software. That is, the In Cell Analyzer 3000 was used to quantitate the localization of the arrestin-GFP conjugate for the cells in each well. […] The average of the fluorescent intensity of the identified grains per cell in an acquired image (i.e., Fgrains) was determined for each well on the plates. […]

Question: With [D-Pen2,D-Pen5]-enkephalin [DPDPE] as the substance, how does the EC50 read?
Answer: 11.2 nM
